The numbers were not newly measured in US6900203B2, “Optically active fluorinated vasoconstrictors, methods for making them, and anesthetic formulations comprising them” (Polium Technologies, Inc., priority 2002, dated 2005), which cites them from elsewhere.

Chains of the proteins cited; added tags and fusions are not shown.
UniProt P08588, whole entry: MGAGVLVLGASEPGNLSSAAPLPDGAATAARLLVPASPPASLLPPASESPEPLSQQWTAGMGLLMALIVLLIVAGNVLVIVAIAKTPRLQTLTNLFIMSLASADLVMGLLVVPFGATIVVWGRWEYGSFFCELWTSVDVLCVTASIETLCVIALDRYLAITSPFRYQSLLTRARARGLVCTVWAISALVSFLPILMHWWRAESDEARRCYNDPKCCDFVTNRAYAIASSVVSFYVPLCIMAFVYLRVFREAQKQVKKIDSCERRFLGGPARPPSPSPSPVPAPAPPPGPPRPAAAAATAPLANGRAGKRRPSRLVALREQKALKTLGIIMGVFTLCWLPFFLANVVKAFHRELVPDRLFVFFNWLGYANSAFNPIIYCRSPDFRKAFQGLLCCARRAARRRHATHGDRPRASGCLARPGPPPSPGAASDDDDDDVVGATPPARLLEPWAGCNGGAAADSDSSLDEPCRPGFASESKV

This series concerns the target β1 (Homo sapiens, UniProt P08588). The following applies: read-out: Receptor affinity β1.

`CNC[C@H](O)c1ccc(O)c(O)c1` [(R)-epinephrine]: the Ki was 1.1 ± 0.3 µM.
For `CNC[C@@H](O)c1ccc(O)c(O)c1` [(S)-epinephrine], the Ki is 13 ± 2 µM.
